# Experimental data: PubChem BioAssay AID853 (Columbia University Molecular Screening Center, 2007)
# The entries are a selection whose mix differs from that of the whole data set. Active and inactive are the calls of the source.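 The calls were made as follows: active = inhibition of aggregate fluorescence above about 70%, also judged a hit by eye on the cell image (limit read from the data, passing the limit was not always enough); inconclusive = no rule stated for this call; inactive = not judged a hit on image review.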
# Experiment: removal of polyQ htt aggregates in HeLa – imaging, HeLa Exon1htt(103Q)mCFP, confocal imaging, primary screen (AID 853);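 also: cells exposed to compound for three days before fixation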
# Conditions: aggregate imaging, at 1.5 µM, stronger effect = higher value, zero = plate's median compound well
row,Structure (SMILES),inhibition
1,Cc1cc(C)cc(OP(C)(=O)Nc2ccc(C)cc2C)c1 (centres undefined),inactive: 42.1%
2,Cc1ccc(C)c(NP(C)(=O)Oc2ccccc2)c1 (centres undefined),inactive: -40.3%
3,CCOP1(=S)c2c(C)nn(CCC#N)c2N=C(c2ccccc2F)N1C (centres undefined),inactive: 12.9%
4,Cc1nn(-c2ccccc2)c2c1P(=O)(N1CCOCC1)N(C)C(c1ccccc1)=N2 (centres undefined),inactive: -24.7%
5,O=P1(Nc2ncccn2)COc2ccccc2OC1,inactive: 26.6%
6,O=P1(Nc2ccc(Br)cn2)COc2ccccc2OC1,inactive: -24.4%
7,O=P1(Nc2ccccn2)COc2ccccc2OC1,inactive: -44.5%
8,Clc1n[nH]nc1-c1nn[nH][15n]1,inactive: -9.3%
9,CC1(CBr)Cn2c(nc3ccccc3c2=O)S1 (centres undefined),inactive: 53.1%
10,COP1(=S)c2c(C)nn(CCC#N)c2N=C(c2ccc(F)cc2)N1C (centres undefined),inactive: 61.4%
11,CCC(C)N(CC(C)C)C(=S)SC(NC(C)=O)C(Cl)(Cl)Cl (centres undefined),inactive: -55.5%
12,CP(=S)(Nn1cnnc1)Oc1ccccc1 (centres undefined),inactive: -101%
13,CN1CCCC(OC(=O)C(c2ccccc2)c2ccccc2)C1 (centres undefined),inactive: -111%
14,Cc1c2non([O-])c-2c(C)[n+](=O)[n+]1[O-],inactive: 3.1%
15,CCc1ccc(OP(C)(=O)O)cc1,inactive: 28.8%
16,Cc1nc2ccc3ccccc3c2o1.O=[N+]([O-])c1cc([N+](=O)[O-])c(O)c([N+](=O)[O-])c1,inactive: -23.5%
17,CP(=O)(OC12CC3CC(CC(C3)C1)C2)OC12CC3CC(CC(C3)C1)C2,inactive: 15%
18,CCN(CC)CC(O)COC(=O)C(O)(c1ccccc1)C1CCCCC1 (centres undefined),inactive: -28.1%
19,CCc1nc2c(n1)c1c(non1O)c1c2no[n+]1[O-],inactive: -10.5%
20,CP(=O)(Oc1ccccc1)N1CCOC1=O (centres undefined),active: 73.9%
21,CC1CCN(C(=O)Oc2c(Cl)cc(Cl)c3cccnc23)CC1,inactive: -8.5%
22,O=P(Nc1nccs1)(c1ccccc1)c1ccccc1,inactive: 66.7%
23,CCOP(C)(=S)SCC(=O)NC(C)(CC)C(=O)O (centres undefined),inactive: -41.6%
24,CP(=O)(Nc1ccc2c(c1)OCCO2)Oc1ccccc1 (centres undefined),inactive: 12%
25,CN(C)CCOC(=O)C(O)(c1ccccc1)C1CCCCC1 (centres undefined),inactive: -1.2%
26,O=C(OC1CN2CCC1CC2)c1cccc(Cl)c1 (centres undefined),inactive: -99.6%
27,CP(=O)(Nc1ccccc1)Oc1ccc(F)cc1 (centres undefined),inactive: -2.7%
28,O=P1(Nc2nc3ccc(Cl)cc3s2)COc2ccccc2O1 (centres undefined),inactive: 0.8%
29,CP(=O)(Nc1ccccc1F)Oc1ccccc1 (centres undefined),inactive: -1.1%
